The values below come from US20230002352A1, “SULFONAMIDE DERIVATIVES AS CTPS1 INHIBITORS” (Step Pharma S.A.S., priority 2019, published 2023).

One assay has as its target human CTPS1 (Homo sapiens, UniProt P17812). The experiment in a line: Human CTPS1 enzyme inhibition (ADP-Glo Max assay). The note with it: read-out: CTPS1 (Human CTPS1 Enzyme Inhibition data grouped by potency range, IC50), Table 24. On the procedure: Biological Example 1—Human CTPS1 Enzyme Inhibition
The enzyme inhibitory activities of compounds invented against the target of interest were determined using the ADP-Glo™ Max assay (Promega, UK). Assays for human CTPS1 were performed in 1× assay buffer containing 50 mM Tris, 10 mM MgCl2, 0.01% Tween-20, pH to 8.0 accordingly. Finally, immediately before use, L-cysteine was added to the 1× assay buffer to a final concentration of 2 mM. All reagents are from Sigma-Aldrich unless specified otherwise. Human full length active C-terminal FLAG-Hiss-tag CTPS1 (UniProtKB-P17812, CTPS[1-591]-[…]) was obtained from Proteros biostructures GmbH.
3× human CTPS1 protein was prepared in 1× assay buffer to the final working protein concentration required for the reaction. […] The enzymatic reaction was then initiated by addition of a 2 uL per well volume of a pre-mixed substrate mix (UltraPure ATP from ADP-Glo™ Max kit (0.31 mM), GTP (0.034 mM), UTP (0.48 mM) and L-glutamine (0.186 mM)) and the mixture was incubated for an appropriate amount of time within the determined linear phase of the reaction at 25° C. under sealed plate conditions with constant agitation at 500 revolutions per minute (rpm). […]

Another assay deals with human CTPS1 versus CTPS2. As to the kind of experiment: Human CTPS1 versus CTPS2 selectivity assessment by RapidFire/MS analysis. Format: biochemical. The note with it: Table 27. On the procedure:
Biological Example 2—RapidFire/MS-Based Enzyme Selectivity Assays.
Human CTPS1 Versus CTPS2 Selectivity Assessment by RapidFire/MS Analysis.
The enzyme inhibitory activities against each target isoform of interest may be determined for the compounds of the invention using an optimised RapidFire high-throughput mass spectrometry (RF/MS) assay format. RF/MS assays for both human CTPS1 and CTPS2 may be performed in assay buffer consisting of 50 mM HEPES (Merck), 20 mM MgCl2, 5 mM KCl, 1 mM DTT, 0.01% Tween-20, pH to 8.0 accordingly. Human full-length active C-terminal FLAG-His-tag CTPS1 (UniProtKB-P17812, CTPS[1-591]-[…]) may be obtained from Proteros biostructures GmbH. Human full length active C-terminal FLAG-His-Avi tagged CTPS2 (UniProtKB-Q9NRF8, CTPS2 [1-586]-[…]) may be obtained from Harker Bio.
Human CTPS (1 or 2) protein may be prepared in 1× assay buffer to the final working protein concentration required for the reaction. […] Each mixture may be incubated for an appropriate amount of time per isoform within the determined linear phase of the reaction at 25° C. […]
In all cases, the enzyme converts UTP to CTP. […] Readout for data analysis may be calculated as the ratio between the peak area of the product CTP and the internal standard ^13C9-^15N3-CTP. […]
Fold selectivity between CTPS1 and CTPS2 was subsequently calculated according to the following equation: […]

In the case of `CCOc1cncc(-c2ccc(NC(=O)C3(c4ccnc(NS(=O)(=O)N(C)C)n4)CCOCC3)nc2)n1`, on human CTPS1, the IC50 (in general, the point on the concentration scale where inhibition reaches its midpoint) lay in the range of 100 to 1000 nM. Further, in the assay on human CTPS1 versus CTPS2, the “Selectivity (fold selectivity between CTPS1 and CTPS2)” value was “+++ (>60 fold (+++))”.
